The results in this text go back to PMC3365014 (PLoS ONE, 2012).

For test [1], the target named is T1, p53 C-terminal domain (p53CTD, residues 293–393) (UniProt P04637 293-393).
T1 construct: p53 C-terminal domain, residues 293–393; 15N-labeled for NMR; also called p53(293–393); full length p53CTD; source: E. coli (C41 for the 15N-labeled protein), purified as described [23]
As to the kind of experiment: fluorescence polarisation; fluorescence anisotropy; p53CTD titrated into 100 nM fluorescein-labeled peptide; 20 mM sodium phosphate pH 7.2, 13.5 mM NaCl, 10°C; 5 mM β-mercaptoethanol for peptides with cysteine; single-site 1:1 model; Kd in µM tetramer. The conditions noted are these: both partners purified. (Polarisation of emitted light reports the rotation of a fluorescent probe.)

The target of test [2] is T1, p53 C-terminal domain (p53CTD, residues …). As to the kind of experiment: peptide or protein array; Celluspots peptide array, peptides immobilised; 20 µM p53CTD in 1% milk in TBS-T (50 mM Tris pH 7.5, 110 mM NaCl, 0.05% Tween 20), overnight at 4°C; detected with FL-393 anti-p53 antibody. The conditions noted are these: both partners purified.

B1: Wmot2(266–280), fluorescein-labeled (peptide)
peptide: WSTNGDTFLGGEDFDQ
modifications: fluorescein (5(6)-carboxyfluorescein) on the N-terminus; C-terminal amide
notes: single tryptophan added at the N-terminus; Mortalin-2 (hsp70 family member), residues 266–280; source: synthetic peptide (Fmoc, HPLC-purified)
One may read the Kd as the equilibrium constant for the complex coming apart. A higher Kd goes with weaker binding. Regarding B1, the Kd in test [1] turned out to be 41 µM.

B2: PKCα(281–295), peptide on the array (peptide)
peptide: EEGEYYNVPIPEGDE
notes: Immobilised on the array; source: bought: Intavis Celluspots peptide array
Turning to B2, in test [2], the binding result is listed as “binds”.
